Experiment [1] relates to MDA-MB-436. Nature of the experiment: Cytotoxicity against human MDA-MB-436 cells assessed as inhibition of cell viability incubated for 14 days with three intermittent intervals by CellTiterGlo luminescence assay. The settings on record: MDA-MB-436, 336 h. For orientation: ATP-based viability assays read luminescence as a measure of living cells.
The subject of experiment [2] is MDA-MB-436. Nature of the experiment: Cytotoxicity against human MDA-MB-436 cells assessed as inhibition of cell viability incubated for 4 days by CellTiterGlo luminescence assay. As to conditions: MDA-MB-436, 96 h.
Another experiment has as its system HEK293. Nature of the experiment: Cytotoxicity against HEK293 cells assessed as inhibition of cell viability. As to conditions: Homo sapiens. Type of experiment: cell-based.

`Cn1ncnc1[C@H]1c2n[nH]c(=O)c3cc(F)cc(c23)N[C@@H]1c1ccc(F)cc1` [TALAZOPARIB]: the concentration for half-maximal inhibition (IC50) amounted to 0.012 nM in the experiment on MDA-MB-436 [1], 0.38 nM in the experiment on MDA-MB-436 [2] and 4.95 nM in the experiment with HEK293.

A word on the IC50: it is the concentration that gives 50% inhibition.

For the origin of these results see ChEMBL document CHEMBL4673259, “Discovery of isoquinolinone and naphthyridinone-based inhibitors of poly(ADP-ribose) polymerase-1 (PARP1) as anticancer agents: Structure activity relationship and preclinical characterization” (Bioorg Med Chem, 2020).
